51 compounds from patent US9951073B2, “Compounds and compositions for treating chemical warfare agent-induced injuries” (dated 2018) can be followed below.

Protein sequences, listed by entry. Tags and fused reporters are not part of them.
UniProt O75762, whole entry, looked up: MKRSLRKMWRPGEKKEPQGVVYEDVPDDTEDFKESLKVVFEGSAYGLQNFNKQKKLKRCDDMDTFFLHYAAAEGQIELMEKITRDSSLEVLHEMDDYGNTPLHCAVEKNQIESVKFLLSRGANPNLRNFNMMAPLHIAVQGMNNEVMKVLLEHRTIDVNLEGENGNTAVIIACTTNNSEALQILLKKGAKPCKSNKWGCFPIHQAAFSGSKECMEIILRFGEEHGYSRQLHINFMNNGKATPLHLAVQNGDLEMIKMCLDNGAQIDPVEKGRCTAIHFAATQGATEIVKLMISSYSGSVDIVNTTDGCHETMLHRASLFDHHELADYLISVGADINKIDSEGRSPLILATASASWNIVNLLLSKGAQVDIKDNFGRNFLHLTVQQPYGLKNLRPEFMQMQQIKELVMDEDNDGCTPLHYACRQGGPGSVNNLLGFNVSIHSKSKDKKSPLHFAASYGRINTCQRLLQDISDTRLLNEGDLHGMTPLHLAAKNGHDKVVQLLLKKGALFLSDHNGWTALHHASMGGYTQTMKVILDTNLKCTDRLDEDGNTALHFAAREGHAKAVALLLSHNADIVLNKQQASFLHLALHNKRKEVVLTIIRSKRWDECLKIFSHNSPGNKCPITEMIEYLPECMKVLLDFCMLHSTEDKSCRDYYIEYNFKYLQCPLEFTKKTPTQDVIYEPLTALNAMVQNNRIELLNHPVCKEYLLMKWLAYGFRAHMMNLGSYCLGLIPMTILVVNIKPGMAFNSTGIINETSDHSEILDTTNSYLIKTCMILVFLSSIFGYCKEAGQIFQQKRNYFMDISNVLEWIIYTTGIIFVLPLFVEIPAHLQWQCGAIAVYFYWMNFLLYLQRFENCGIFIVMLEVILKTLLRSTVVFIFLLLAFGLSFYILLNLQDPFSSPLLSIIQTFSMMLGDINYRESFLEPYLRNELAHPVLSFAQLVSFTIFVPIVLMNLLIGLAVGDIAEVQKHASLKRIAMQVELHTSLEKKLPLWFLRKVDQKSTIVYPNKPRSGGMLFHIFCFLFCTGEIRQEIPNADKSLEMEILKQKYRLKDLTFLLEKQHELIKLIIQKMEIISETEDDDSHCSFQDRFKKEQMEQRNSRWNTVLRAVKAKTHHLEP

Molecules are shown by their SMILES. Where only a bound is given, the exact number is not on record here.

The target of this test is TRPA1 channel (Homo sapiens, UniProt O75762). Briefly: Whole-cell patch clamp experiments, block of AITC-evoked current in HEK293/TREx TRPA1 cells. The following applies: read-out: activity (IC50) as measured in the patch clamp assay, HEK293/TREx TRPA1 cells induced with tetracycline, block of current in the continued presence of AITC.

With `Cc1ccc(CCNCCn2cnc3c2c(=O)n(C)c(=O)n3C)cc1`, the IC50 fell in the range of 1 to 10 µM.

For `Cn1c(=O)c2c(ncn2CC(=O)NCCc2ccc(OCc3ccccc3)cc2)n(C)c1=O`, the IC50 lay within 1 to 10 µM.

On to `Cn1c(=O)c2c(ncn2CC(=O)NCCc2ccc(Cl)cc2Cl)n(C)c1=O`, for which the IC50 was 1 to 10 µM.

`Cn1c(=O)c2c(ncn2CC(=O)NCCN2CCOCC2)n(C)c1=O`: the IC50 is more than 10 µM.

As for `Cn1c(=O)c2c(ncn2CC(=O)NCCc2ccc(C3CCCCC3)cc2)n(C)c1=O`, the IC50 was less than 1 µM.

Turning to `COc1ccc(CCNC(=O)Cn2c(=O)[nH]c3c2c(=O)n(C)c(=O)n3C)cc1`, the IC50 was more than 10 µM.

As to `Cn1c(=O)c2c(ncn2CC(=O)Nc2nc3ccc(Br)cc3s2)n(C)c1=O`, the IC50 was less than 1 µM.

For `CCc1ccc(CCNC(=O)Cn2cnc3c2c(=O)n(C)c(=O)n3C)cc1`, the IC50 was 1 to 10 µM.

Turning to `Cn1c(=O)c2c(ncn2CC(=O)NCCC23CC4CC(CC(C4)C2)C3)n(C)c1=O`, the IC50 was less than 1 µM.

Turning to `CCCn1c(=O)n(C)c(=O)c2c1ncn2CC(=O)NCCc1ccc(C)cc1`, the IC50 was in the range of 1 to 10 µM.

With `Cn1c(=O)c2c(ncn2CC(=O)N[C@H](CO)Cc2ccccc2)n(C)c1=O`, the IC50 was in the range of 1 to 10 µM.

In the case of `CC(=O)N(CCc1ccc(C)cc1)CCn1cnc2c1c(=O)n(C)c(=O)n2C`, the IC50 is less than 1 µM.

`COc1ccc(CCNC(=O)Cn2c(=O)n(C)c3c2c(=O)n(C)c(=O)n3C)cc1`: the IC50 is 1 to 10 µM.

On to `COc1ccc(CS(=O)(=O)NC(=O)Cn2cnc3c2c(=O)n(C)c(=O)n3C)cc1`, for which the IC50 was 1 to 10 µM.

On to `COc1ccc([C@@H]2C[C@@H]2NC(=O)Cn2cnc3c2c(=O)n(C)c(=O)n3C)cc1`, for which the IC50 is 1 to 10 µM.

Take `COc1ccc(CCNC(=O)Cn2c(=O)[nH]c3c(=O)n(C)c(=O)n(C)c32)cc1`: the IC50 was more than 10 µM.

As to `Cn1c(=O)c2c(ncn2CC(=O)NCCc2ccc(C(C)(C)C)cc2)n(C)c1=O`, the IC50 is 1 to 10 µM.

On to `COc1ccc(OC)c(CCNC(=O)Cn2cnc3c2c(=O)n(C)c(=O)n3C)c1`, for which the IC50 is 1 to 10 µM.

As to `CC(CNC(=O)Cn1cnc2c1c(=O)n(C)c(=O)n2C)c1ccccc1` (stereo not drawn), the IC50 was 1 to 10 µM.

On to `Cn1c(=O)c2c(ncn2CC(=O)N[C@H]2CN3CCC2CC3)n(C)c1=O`, for which the IC50 is more than 10 µM.

For `Cc1ccc(CCNC(=O)Cn2cnc3c2c(=O)n(C)c(=O)n3C)cc1C`, the IC50 was 1 to 10 µM.

In the case of `Cn1c(=O)c2c(ncn2CC(=O)NCCC2CCC(O)CC2)n(C)c1=O` (stereo not drawn), the IC50 is more than 10 µM.

In the case of `Cn1c(=O)c2c(ncn2CC(=O)NCCC2CCCCC2)n(C)c1=O`, the IC50 is more than 10 µM.

In the case of `Cc1ccc(F)cc1NC(=O)Cn1cnc2c1c(=O)n(C)c(=O)n2C`, the IC50 fell in the range of 1 to 10 µM.

For `Cn1c(=O)c2c(nc(Cl)n2CC(=O)Nc2ccc3c(c2)CCC3)n(C)c1=O`, the IC50 was less than 1 µM.

Turning to `Cc1ccc(NC(=O)Cn2c(Cl)nc3c2c(=O)n(C)c(=O)n3C)cc1`, the IC50 is more than 10 µM.

`Cn1c(=O)c2c(ncn2CC(=O)NCC2CCCCC2)n(C)c1=O`: the IC50 was 1 to 10 µM.

Consider `COc1ccc(CCNS(=O)(=O)Cn2cnc3c2c(=O)n(C)c(=O)n3C)cc1`, for which the IC50 is more than 10 µM.

In the case of `Cn1c(=O)c2c(ncn2CC(=O)N[C@@H](CO)Cc2ccccc2)n(C)c1=O`, the IC50 is 1 to 10 µM.

In the case of `CCCn1c(=O)c2c(ncn2CC(=O)NCCc2ccc(C)cc2)n(C)c1=O`, the IC50 is more than 10 µM.

Turning to `Cc1ccc(CCN(C)CCn2cnc3c2c(=O)n(C)c(=O)n3C)cc1`, the IC50 lay within 1 to 10 µM.

As to `Cn1c(=O)c2c(ncn2CC(=O)NCCc2c(Cl)cccc2Cl)n(C)c1=O`, the IC50 fell in the range of 1 to 10 µM.

Regarding `Cn1c(=O)c2c(nc(Cl)n2CC(=O)NCCSc2ccc(Cl)cc2)n(C)c1=O`, the IC50 was less than 1 µM.

On to `CCOc1ccc2nc(NC(=O)Cn3cnc4c3c(=O)n(C)c(=O)n4C)sc2c1`, for which the IC50 was less than 1 µM.

As to `CCCCOc1ccc(CCNC(=O)Cn2cnc3c2c(=O)n(C)c(=O)n3C)cc1`, the IC50 was 1 to 10 µM.

Turning to `COc1ccc([C@H]2C[C@@H]2NC(=O)Cn2cnc3c2c(=O)n(C)c(=O)n3C)cc1`, the IC50 was in the range of 1 to 10 µM.

On to `Cn1c(=O)c2c(ncn2CC(=O)NCCc2ccccc2Br)n(C)c1=O`, for which the IC50 lay within 1 to 10 µM.

As to `COc1cccc(CCNC(=O)Cn2cnc3c2c(=O)n(C)c(=O)n3C)c1OC`, the IC50 was 1 to 10 µM.

For `CCn1c(=O)c2c(ncn2CC(=O)NCCc2ccc(OC)cc2)n(CC)c1=O`, the IC50 is more than 10 µM.

Consider `CN1CCN(CCNC(=O)Cn2cnc3c2c(=O)n(C)c(=O)n3C)CC1`, for which the IC50 lay within 1 to 10 µM.

`Cn1c(=O)c2c(ncn2CC(=O)NCCc2ccc3c(c2)OCO3)n(C)c1=O`: the IC50 lay within 1 to 10 µM.

With `Cn1c(=O)c2c(ncn2CC(=O)NCCc2ccncc2)n(C)c1=O`, the IC50 is more than 10 µM.

Regarding `Cn1c(=O)c2c(ncn2CC(=O)N/N=C/c2ccc(C(F)(F)F)cc2)n(C)c1=O`, the IC50 fell in the range of 1 to 10 µM.

As for `Cn1c(=O)c2c(ncn2CC(=O)NCCc2cccc(Cl)c2Cl)n(C)c1=O`, the IC50 lay in the range of 1 to 10 µM.

For the compound `Cc1ccc(CCOC(=O)Cn2cnc3c2c(=O)n(C)c(=O)n3C)cc1`, the IC50 was in the range of 1 to 10 µM.

`Cn1c(=O)c2c(ncn2CC(=O)NCCc2cccc(F)c2)n(C)c1=O`: the IC50 fell in the range of 1 to 10 µM.

Consider `Cn1c(=O)c2c(ncn2CC(=O)NCCc2ccc(-c3ccccc3)cc2)n(C)c1=O`, for which the IC50 was less than 1 µM.

Consider `Cn1c(=O)c2c(ncn2CC(=O)NCCN2CCCCC2)n(C)c1=O`, for which the IC50 was more than 10 µM.

Turning to `CCCn1c(=O)n(C)c(=O)c2c1ncn2CC(=O)NCCc1ccccc1`, the IC50 was less than 1 µM.

Take `COc1ccc(CNC(=O)CCn2cnc3c2c(=O)n(C)c(=O)n3C)cc1`: the IC50 is more than 10 µM.

As for `Cc1ccc(CCN(CCn2cnc3c2c(=O)n(C)c(=O)n3C)S(C)(=O)=O)cc1`, the IC50 was in the range of 1 to 10 µM.
